Results reported in patent US8268849B2, “Multifunctional Antioxidants and methods of use thereof” (priority 2007, dated 2012).

Experiments:
[1] = tested on: lens opacities after whole head irradiation; settings: rat, in vivo
Excerpt: Cataracts were induced by whole head gamma irradiation in 24 male Long Evans (150-200 g) rats. […] Because of the amount of drug required for this long-term study, the percentage of JHX-4 and JHX-8 utilized was ½ of the dose used in the diabetic study. […] Gamma radiation (6000 Curie Cobalt-60 Source, UNMC Experimental Radiation Facility) was delivered to the whole head of unanesthetized, restrained rats at a dose rate of dose 0.341 Gy/minute for a total dose of 15 Gy. Lens changes were monitored every 7 days by portable slit lamp and recorded on a scale from 0-6 with 0: Clear, 1: Posterior subcapsular haze, 2: Spokes, suture enhancement and powdery posterior subcapsular deposits, 3: Prominent posterior subcapsular punctate opacities with spokes and suture enhancement, 4: Posterior subcapsular opacity blocks appearance of retinal vessels, 5: Start cortical involvement, 6: Total lens opacity, visible with naked eye. Since whole head irradiation results in a temporary loss of salivary gland function, all rats received Nutra-Gel (Bio-Serv) with/without JHX-4 or -8 for the first 66 days. Subsequently, all rats received standard rat chow with/without JHX-4 or -8.

[2] = Chow consumption, body weight and salivary gland protection after whole head irradiation; parameters: species or system Long Evans rats; settings: rat, in vivo
Excerpt: Cataracts were induced by whole head gamma irradiation in 24 male Long Evans (150-200 g) rats. […] Because of the amount of drug required for this long-term study, the percentage of JHX-4 and JHX-8 utilized was ½ of the dose used in the diabetic study. […] Lens changes were monitored every 7 days by portable slit lamp and recorded on a scale from 0-6 with 0: Clear, 1: Posterior subcapsular haze, 2: Spokes, suture enhancement and powdery posterior subcapsular deposits, 3: Prominent posterior subcapsular punctate opacities with spokes and suture enhancement, 4: Posterior subcapsular opacity blocks appearance of retinal vessels, 5: Start cortical involvement, 6: Total lens opacity, visible with naked eye. […] Subsequently, all rats received standard rat chow with/without JHX-4 or -8.

With `CC(C)(CO)[C@@H](O)C(=O)NCCC(=O)NCCSSCCNC(=O)CCNC(=O)[C@H](O)C(C)(C)CO` [Pantethine, reference compound] as the compound, how does the “appearance of lens opacities” value [1] read?
Its value is “minimal”.

And the “delay of lens PSC opacities” value ([1]; ip)?
The value was 4 days.

What about the “delay of the average (50% in all animals) formation of PSC punctuate opacities” value ([1]; ip) of the same compound?
The value was 23 days.

What about the “body weight after irradiation” value [2] of the same compound?
The value was “significantly decreased”.

What about the “chow consumption immediately after irradiation” value [2] of the same compound?
Its value is “marked reduction in feeding”.
